Measured values: patent publication US8933056B2, “Soft protease inhibitors and pro-soft forms thereof” (Trustees of Tufts College, priority 2005, dated 2015)

Chains of the proteins cited; added tags and fusions are not shown. Lines headed by an entry give the natural chain unless they say otherwise; changes in a name come on top.
UniProt P22411: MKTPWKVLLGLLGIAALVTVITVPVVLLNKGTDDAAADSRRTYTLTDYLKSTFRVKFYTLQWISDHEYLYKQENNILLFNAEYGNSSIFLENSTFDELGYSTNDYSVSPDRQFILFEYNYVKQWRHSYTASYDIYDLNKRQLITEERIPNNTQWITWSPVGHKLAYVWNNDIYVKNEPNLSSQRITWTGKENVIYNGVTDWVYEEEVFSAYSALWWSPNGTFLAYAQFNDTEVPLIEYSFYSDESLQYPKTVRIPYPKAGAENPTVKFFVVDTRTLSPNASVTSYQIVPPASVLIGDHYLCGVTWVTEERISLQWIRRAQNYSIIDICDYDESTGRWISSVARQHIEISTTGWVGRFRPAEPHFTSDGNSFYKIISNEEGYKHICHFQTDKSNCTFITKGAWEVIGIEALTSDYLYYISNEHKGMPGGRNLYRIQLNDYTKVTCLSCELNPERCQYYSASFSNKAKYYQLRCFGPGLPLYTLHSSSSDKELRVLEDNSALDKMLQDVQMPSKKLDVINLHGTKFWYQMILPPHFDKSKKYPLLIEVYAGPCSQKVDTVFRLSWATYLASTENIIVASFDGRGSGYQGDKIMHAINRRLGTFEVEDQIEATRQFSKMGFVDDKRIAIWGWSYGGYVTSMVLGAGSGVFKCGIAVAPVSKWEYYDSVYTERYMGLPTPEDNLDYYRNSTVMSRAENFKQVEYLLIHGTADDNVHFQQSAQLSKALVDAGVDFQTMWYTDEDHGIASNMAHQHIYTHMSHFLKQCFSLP

Target: DP-IV (Sus scrofa (Pig), UniProt P22411)
Assay: DPP IV inhibition: thioxamide v. oxoamide
Assay type: biochemical, porcine
Description: The inhibitory activity of a compound may be tested easily. […] A compound is then screened for its ability to inhibit the protease activity of DP-IV with respect to a […] substrate. […] Briefly, a reaction containing 50 micromol sodium Hepes (pH 7.8), 10 micromol Ala-Pro-p-nitroanilide, 6 milliunits of DP-IV, and 2% (vol/vol) dimethylformamide in a total volume of 1.0 mL. The reaction was initiated by the addition of enzyme and reaction rates were measured at 25 C; formation of reaction product (para-nitroanilide) in the presence and absence of a test compound can be detected photometrically, e.g., at 410 nm.

Which IC50 (IC50 (pH 2.0), pH 2.0) does the source give for `N[C@@H](CC(=O)O)C(=O)N1CCC[C@H]1B(O)O` [Asp-boroPro, reference compound] here?
The IC50 was 0.2 µM.

What about the IC50 (IC50 (pH 8.0), pH 8.0) of the same molecule?
The IC50 was 35 µM.

What about the “Inactivation Index” value (IC50 pH 8.0 to pH 2.0) of the same molecule?
Its value is 180.
